According to patent US20240117074A1 (published 2024):

Key:
[1] = target: T1, human CEACAM6, recombinant soluble (hCEACAM-6, R&D Systems #3934-CM-050) (human, UniProt P40199 35-320); test: ELISA, coated CEACAM family protein
T1 sequence (looked up): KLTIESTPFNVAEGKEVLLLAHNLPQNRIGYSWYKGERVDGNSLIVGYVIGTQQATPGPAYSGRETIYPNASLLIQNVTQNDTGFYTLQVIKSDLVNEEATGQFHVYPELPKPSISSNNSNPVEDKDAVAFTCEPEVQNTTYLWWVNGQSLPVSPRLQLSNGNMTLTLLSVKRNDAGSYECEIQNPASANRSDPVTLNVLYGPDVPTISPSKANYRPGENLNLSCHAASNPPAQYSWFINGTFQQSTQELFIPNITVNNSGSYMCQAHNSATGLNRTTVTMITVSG

[2] = target: T2, CEACAM8, recombinant soluble (CEACAM-8, R&D Systems #9639-CM-050) (UniProt P31997 35-320, limits assumed); test: ELISA, coated CEACAM family protein
T2 sequence (looked up): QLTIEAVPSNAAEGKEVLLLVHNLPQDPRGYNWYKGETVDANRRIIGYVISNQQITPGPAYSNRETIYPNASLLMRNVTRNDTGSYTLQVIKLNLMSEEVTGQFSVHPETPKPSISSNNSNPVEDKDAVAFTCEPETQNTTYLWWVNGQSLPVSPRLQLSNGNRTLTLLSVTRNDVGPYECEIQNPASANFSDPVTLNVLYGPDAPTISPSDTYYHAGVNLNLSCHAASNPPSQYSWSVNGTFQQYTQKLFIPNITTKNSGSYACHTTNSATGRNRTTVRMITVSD

- binding result [1]: no binding
- binding result [2]: no binding
B1: Multi42 (bispecific antibody, human IgG1, kappa, L234A L235A)
chain 1: not shown
light: EIVLTQSPGTLSLSPGERATLSCRASQSVSSSYLAWYQEKPGQAPRLLIYGASSRATGIPDRFSGSGSGTDFTLTISRLEPEDFAVYYCQQYWYPLTFGQGTKLEIKRTVAAPSVFIFPPSDEQLKSGTASVVCYLNNFYPREAKVQWKVDNALQSGNSQESVTEQDSKDSTYSLWSTLTLSKADYEKHKVYACEVTHQGLSSPVTKSFNRGEC
chain 2: EVQLLESGGGLVQPGGSLRLSCAASGFTFSTYGMHWVREAPGKGLEWLSYISGGSSYIFYADSVKGRFTISRDNSKNTLYLQMNSLRAEDTAVYYCARILRGGSGMDLWGQGTLVTVSSASTKGPSVFPLAPSSKSTSGGTAALGCLVKDYFPEPVTVSWNSGALTSGVHTFPAVLQSSGLYSLTSVVEVPSSSLGTQTYICNVNHKPSNTKVDKKVEPKSC
